According to ChEMBL document CHEMBL4304744, “Anti-metastatic Inhibitors of Lysyl Oxidase (LOX): Design and Structure-Activity Relationships” (J Med Chem, 2019):

Assay: Inhibition of pig skin LOX using cadaverine hydrochloride as substrate preincubated for 20 mins followed by substrate addition and measured after 45 mins by horseradish peroxidase-coupled amplex red reagent-based fluorescence assay
Parameters: species or system Sus scrofa

Compound: NCc1ncc(S(=O)(=O)c2ccc3ccccc3c2)s1
- IC50: 1000 to 1200 nM
